# Measured affinities in a library of Ab-95 light chain variants

The measurements come from Engelhart et al. 2022 (doi:10.1038/s41597-022-01779-4) through the FLAb antibody collection.

All variants were tested on one target, the spike HR2 peptide PDVDLGDISGINAS (SARS-CoV-2).

Parent: Ab-95, a human scFv built as VH, a 15-residue (Gly4Ser)3 linker, VL. Only the CDRs of the light chain vary.
VH: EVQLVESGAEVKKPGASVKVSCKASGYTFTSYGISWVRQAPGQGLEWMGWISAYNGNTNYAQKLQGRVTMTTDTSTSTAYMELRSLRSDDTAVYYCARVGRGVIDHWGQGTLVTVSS
VL: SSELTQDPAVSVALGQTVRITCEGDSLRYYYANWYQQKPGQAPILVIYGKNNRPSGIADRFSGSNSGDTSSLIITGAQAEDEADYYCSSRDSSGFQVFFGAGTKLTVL

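AAYL52 was designed without a model: most single CDR substitutions and a random sample of double and triple ones. Affinity was read by AlphaSeq, a pooled yeast mating assay with surface-displayed partners. Mating (16 h, 30 °C) was followed by selection of diploids and sequencing of their barcodes. Each replicate has its own calibration line, from reference interactions of the BCL2 family. Each pool was mated in three replicate cultures.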

Each variant is given by its three light chain CDRs, as the data file delimits them; those of the parent are EGDSLRYYYAN, GKNNRPS, SSRDSSGFQVF. Numbers give log10(Kd / nM), so 0 is 1 nM and 3 is 1 µM. Smaller is tighter. Replicates are averaged; those with no signal do not enter the mean. An entry "ND" has no value in the source: the pair was not observed among the diploids in that replicate. This suggests poor binding but is not conclusive. In this assay the parent's reference entry averaged 2.31; its copy inside this library read 2.25. Empty control strains, which show no peptide, gave a signal in 28% of pairings with library AAYL52; the median was 3.91 and 95% of these signals were weaker than 2.90. No background was subtracted. For each scFv, signals with the empty controls are counted beside the result, with their mean in brackets.

| # | CDR-L1 | CDR-L2 | CDR-L3 | log10 Kd, replicates | mean, log10 nM | empty controls |
|---|---|---|---|---|---|---|
| 1 | EGDSLRYWYAN | GKNNRPS | SSQDSSGFQVF | ND / ND / ND | ND | 4/9 (3.60) |
| 2 | EGDSLRYYYAN | GKNNDPS | SSRCSSGFQVF | 4.05 / ND / ND | 4.05 | 2/9 (3.68) |
| 3 | EGDSLRYYWAN | HKNNRPF | SSRDSSGFQVF | ND / ND / 3.21 | 3.21 | 4/9 (3.74) |
| 4 | EGDSLRFYYAN | GKNNRPS | SSRKSSGFQVD | ND / ND / ND | ND | 2/9 (4.34) |
| 5 | EGDSLRNYYAW | GKNNRPS | SSRDSNGFQVF | 4.20 / ND / 3.54 | 3.87 | 5/9 (4.31) |
| 6 | EGDSLRYYYAN | GKNYRPS | SSRWSSGFQVF | 4.37 / ND / ND | 4.37 | 2/9 (4.64) |
| 7 | EGDSLRYYYAN | IKNNRPS | SSRDSSGFFVI | ND / ND / ND | ND | 2/9 (4.41) |
| 8 | EGDSLRYSYAI | GKNNRPS | SNRDSSGFQVF | 3.87 / 4.12 / 2.74 | 3.58 | 1/9 (2.51) |
| 9 | EGCSLRMYYAN | GKNNRPS | SSRDSSGFQVC | ND / ND / ND | ND | 0/9 |
| 10 | EGVSLRYYYAN | GKNNRAS | SSRDSSRFQVF | 4.38 / 3.18 / 3.95 | 3.84 | 2/9 (3.74) |
| 11 | EGDVLRYRYAN | GKNWRPS | SSRDSSGFQVF | 2.80 / 2.70 / 3.01 | 2.84 | 6/9 (3.84) |
| 12 | EGDSLRYYYAN | MKNNRPS | SCEDSSGFQVF | ND / 3.45 / ND | 3.45 | 4/9 (3.74) |
| 13 | EGDSLRYYYAP | GKNNIPS | SSRDSSGFQVF | 3.57 / 3.15 / 2.78 | 3.17 | 4/9 (4.11) |
| 14 | EGDSLRYYYPN | GKNNRTS | SSRDQSGFQVF | 1.75 / 1.83 / 1.44 | 1.67 | 0/9 |
| 15 | EGDSLRRYYAN | GKVNRPI | SSRDSSGFQVF | 4.63 / 4.73 / ND | 4.68 | 3/9 (4.08) |
| 16 | EGDSLRYYYAN | GKNNRQS | SSMDSSGNQVF | 4.05 / ND / ND | 4.05 | 2/9 (3.86) |
| 17 | EGDSLRRYYAP | GKNNRPS | SSRDSMGFQVF | 4.10 / ND / ND | 4.10 | 1/9 (3.01) |
| 18 | EGDSLRYYYAE | GKNLRPS | NSRDSSGFQVF | 4.40 / 5.38 / ND | 4.89 | 0/9 |
| 19 | EGDSLLYYYAN | GCNNRPS | SSRDSSGFQVA | ND / 3.22 / ND | 3.22 | 0/9 |
| 20 | EGDSLRYRYAN | GKNNRPS | SAHDSSGFQVF | 2.38 / 2.10 / 1.91 | 2.13 | 5/9 (3.30) |
| 21 | EGDSLRYSYAP | GKNNRPS | SSRKSSGFQVF | ND / ND / ND | ND | 0/9 |
| 22 | EGDSQRYYYIN | GKNNRPS | SSRDSSGGQVF | ND / ND / ND | ND | 0/9 |
| 23 | EGDSLRYYYAN | MKNNRHS | TSRDSSGFQVF | 4.53 / ND / 3.56 | 4.05 | 4/9 (3.80) |
| 24 | EGLSLRYYCAM | GKNNRPS | SSRDSSGFQVF | ND / ND / ND | ND | 2/9 (4.84) |
| 25 | FGDSLYYYYAI | GKNNRPS | SSRDSSGFQVF | 5.18 / ND / ND | 5.18 | 3/9 (3.83) |
| 26 | ETDSLRYYYAN | GENNRPS | SSRDSSGFQVF | 3.38 / 3.20 / 3.37 | 3.32 | 3/9 (4.56) |
| 27 | IGDSLRAYYAN | GKNNRPS | SSRDSSGFQVS | 1.92 / 2.07 / 2.60 | 2.19 | 3/9 (3.84) |
| 28 | EGDSLRYYYTH | GKNNRPS | SSRDSSGFQVF | 4.31 / ND / 3.19 | 3.75 | 1/9 (5.24) |
| 29 | VGDSLRCYYAN | GKNNRPS | SSRDSSGFQVF | 3.86 / 3.01 / ND | 3.44 | 2/9 (4.16) |
| 30 | EGDSLRYYYAN | GKNNRPS | KSRDISGFQVF | ND / ND / ND | ND | 1/9 (4.29) |
| 31 | EIDELRYYYAN | GKANRPS | SSRDSSGFQVF | ND / 4.66 / ND | 4.66 | 4/9 (4.22) |
| 32 | EGDSLPYYYAN | GKNNRPS | SSRYSMGFQVF | ND / ND / ND | ND | 1/9 (3.40) |

The first 2 entries again:

| CDR-L1 | CDR-L2 | CDR-L3 | log10 Kd, replicates | mean, log10 nM | empty controls |
|---|---|---|---|---|---|
| EGDSLRYWYAN | GKNNRPS | SSQDSSGFQVF | ND / ND / ND | ND | 4/9 (3.60) |
| EGDSLRYYYAN | GKNNDPS | SSRCSSGFQVF | 4.05 / ND / ND | 4.05 | 2/9 (3.68) |